Measured values: PubChem BioAssay (NCI)
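Following 48 hours of exposure in 96-well plates, responses at five concentrations were used to interpolate endpoints linearly. At the TGI there is no net growth.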

How the values were obtained:
Experiment in all cases: inhibition of tumour cell growth, NCI panel, 48 h
786-0 renal = test system: 786-0 renal
A498 renal = test system: A498 renal
A549 NSCLC = test system: A549 NSCLC
ACHN renal = test system: ACHN renal
BT-549 breast = test system: BT-549 breast
CAKI-1 renal = test system: CAKI-1 renal
CCRF-CEM leukemia = test system: CCRF-CEM leukemia
COLO 205 colon = test system: COLO 205 colon
DU-145 prostate = test system: DU-145 prostate
EKVX NSCLC = test system: EKVX NSCLC
HCT-116 colon = test system: HCT-116 colon
HCT-15 colon = test system: HCT-15 colon
HOP-62 NSCLC = test system: HOP-62 NSCLC
HOP-92 NSCLC = test system: HOP-92 NSCLC
HS 578T breast = test system: HS 578T breast
HT29 colon = test system: HT29 colon
IGROV1 ovarian = test system: IGROV1 ovarian
K-562 leukemia = test system: K-562 leukemia
KM12 colon = test system: KM12 colon
LOX IMVI melanoma = test system: LOX IMVI melanoma
M14 melanoma = test system: M14 melanoma
MALME-3M melanoma = test system: MALME-3M melanoma
MCF7 breast = test system: MCF7 breast
MDA-MB-231 breast = test system: MDA-MB-231 breast
MDA-MB-435 = test system: MDA-MB-435
MOLT-4 leukemia = test system: MOLT-4 leukemia
NCI-H226 lung = test system: NCI-H226 lung
NCI-H23 lung = test system: NCI-H23 lung
NCI-H322M lung = test system: NCI-H322M lung
NCI-H460 lung = test system: NCI-H460 lung
NCI-H522 lung = test system: NCI-H522 lung
NCI/ADR-RES ovarian = test system: NCI/ADR-RES ovarian
OVCAR-3 ovarian = test system: OVCAR-3 ovarian
OVCAR-4 ovarian = test system: OVCAR-4 ovarian
OVCAR-5 ovarian = test system: OVCAR-5 ovarian
OVCAR-8 ovarian = test system: OVCAR-8 ovarian
PC-3 prostate = test system: PC-3 prostate
RPMI-8226 leukemia = test system: RPMI-8226 leukemia
RXF 393 renal = test system: RXF 393 renal
SF-268 CNS = test system: SF-268 CNS
SF-295 CNS = test system: SF-295 CNS
SK-MEL-2 melanoma = test system: SK-MEL-2 melanoma
SK-MEL-28 melanoma = test system: SK-MEL-28 melanoma
SK-MEL-5 melanoma = test system: SK-MEL-5 melanoma
SK-OV-3 ovarian = test system: SK-OV-3 ovarian
SN12C renal = test system: SN12C renal
SNB-19 CNS = test system: SNB-19 CNS
SNB-75 CNS = test system: SNB-75 CNS
SR leukemia = test system: SR leukemia
SW-620 colon = test system: SW-620 colon
T-47D breast = test system: T-47D breast
TK-10 renal = test system: TK-10 renal
U251 CNS = test system: U251 CNS
UACC-257 melanoma = test system: UACC-257 melanoma
UACC-62 melanoma = test system: UACC-62 melanoma
UO-31 renal = test system: UO-31 renal

Compound: CN(C(=O)Cc1cc(Cl)c(Cl)cc1N)C1CCCC[C@@H]1N1CCCC1 (stereo partly specified)
- TGI (786-0 renal): 29.2 µM
- TGI (A498 renal): 30.2 µM
- TGI (A549 NSCLC): > 100 µM
- TGI (ACHN renal): 83.9 µM
- TGI (BT-549 breast): > 100 µM
- TGI (CAKI-1 renal): 92.2 µM
- TGI (CCRF-CEM leukemia): 55.1 µM
- TGI (COLO 205 colon): 33 µM
- TGI (DU-145 prostate): > 100 µM
- TGI (EKVX NSCLC): > 100 µM
- TGI (HCT-116 colon): 28.4 µM
- TGI (HCT-15 colon): 42.2 µM
- TGI (HOP-62 NSCLC): 43.3 µM
- TGI (HOP-92 NSCLC): > 100 µM
- TGI (HS 578T breast): 30.6 µM
- TGI (HT29 colon): 36.4 µM
- TGI (IGROV1 ovarian): > 100 µM
- TGI (K-562 leukemia): 36.2 µM
- TGI (KM12 colon): 46.1 µM
- TGI (LOX IMVI melanoma): 36 µM
- TGI (M14 melanoma): 31 µM
- TGI (MALME-3M melanoma): 32.2 µM
- TGI (MCF7 breast): 31.2 µM
- TGI (MDA-MB-231 breast): 41.7 µM
- TGI (MDA-MB-435): 32.1 µM
- TGI (MOLT-4 leukemia): 44.1 µM
- TGI (NCI-H226 lung): 22.8 µM
- TGI (NCI-H23 lung): 77.5 µM
- TGI (NCI-H322M lung): 68.1 µM
- TGI (NCI-H460 lung): 34.9 µM
- TGI (NCI-H522 lung): 31 µM
- TGI (NCI/ADR-RES ovarian): > 100 µM
- TGI (OVCAR-3 ovarian): 43.2 µM
- TGI (OVCAR-4 ovarian): 41.7 µM
- TGI (OVCAR-5 ovarian): > 100 µM
- TGI (OVCAR-8 ovarian): 95 µM
- TGI (PC-3 prostate): 86.3 µM
- TGI (RPMI-8226 leukemia): 40.1 µM
- TGI (RXF 393 renal): 33.1 µM
- TGI (SF-268 CNS): 58.4 µM
- TGI (SF-295 CNS): 62 µM
- TGI (SK-MEL-2 melanoma): 40.7 µM
- TGI (SK-MEL-28 melanoma): 35.8 µM
- TGI (SK-MEL-5 melanoma): 30.4 µM
- TGI (SK-OV-3 ovarian): > 100 µM
- TGI (SN12C renal): > 100 µM
- TGI (SNB-19 CNS): 47.9 µM
- TGI (SNB-75 CNS): 56.2 µM
- TGI (SR leukemia): 37.2 µM
- TGI (SW-620 colon): 44.3 µM
- TGI (T-47D breast): 36.5 µM
- TGI (TK-10 renal): 51.7 µM
- TGI (U251 CNS): 32.4 µM
- TGI (UACC-257 melanoma): 34.2 µM
- TGI (UACC-62 melanoma): 32.8 µM
- TGI (UO-31 renal): 26.8 µM
